Key:
[1] = target: T1, Zinc finger and BTB domain-containing protein 17 (Homo sapiens) (UniProt Q13105); conditions: SUD4
T1 sequence (whole entry): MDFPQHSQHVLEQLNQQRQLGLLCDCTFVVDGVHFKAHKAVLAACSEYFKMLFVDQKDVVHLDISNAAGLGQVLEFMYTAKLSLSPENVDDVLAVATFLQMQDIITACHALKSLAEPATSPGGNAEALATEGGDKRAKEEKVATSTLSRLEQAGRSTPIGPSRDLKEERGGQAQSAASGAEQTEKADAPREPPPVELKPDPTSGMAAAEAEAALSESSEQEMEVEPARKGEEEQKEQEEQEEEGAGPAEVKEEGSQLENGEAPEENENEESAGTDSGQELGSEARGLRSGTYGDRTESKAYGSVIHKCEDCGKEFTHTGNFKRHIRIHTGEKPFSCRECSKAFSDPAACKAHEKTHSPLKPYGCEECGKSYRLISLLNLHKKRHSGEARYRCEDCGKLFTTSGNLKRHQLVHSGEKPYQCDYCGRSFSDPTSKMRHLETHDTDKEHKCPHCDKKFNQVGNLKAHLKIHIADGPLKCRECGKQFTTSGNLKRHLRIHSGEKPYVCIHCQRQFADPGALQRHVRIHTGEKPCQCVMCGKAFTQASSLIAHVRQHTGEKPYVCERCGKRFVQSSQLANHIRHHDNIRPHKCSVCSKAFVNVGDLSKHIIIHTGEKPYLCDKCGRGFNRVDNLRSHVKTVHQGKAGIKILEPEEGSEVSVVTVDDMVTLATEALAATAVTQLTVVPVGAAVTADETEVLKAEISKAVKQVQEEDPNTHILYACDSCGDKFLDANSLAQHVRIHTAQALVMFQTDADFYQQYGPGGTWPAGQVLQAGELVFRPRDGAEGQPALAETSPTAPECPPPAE

Amino acid sequences for entries named in this document (tags omitted). A change or cut given only in a name is not applied to a line headed by its entry.
UniProt Q9UKI8: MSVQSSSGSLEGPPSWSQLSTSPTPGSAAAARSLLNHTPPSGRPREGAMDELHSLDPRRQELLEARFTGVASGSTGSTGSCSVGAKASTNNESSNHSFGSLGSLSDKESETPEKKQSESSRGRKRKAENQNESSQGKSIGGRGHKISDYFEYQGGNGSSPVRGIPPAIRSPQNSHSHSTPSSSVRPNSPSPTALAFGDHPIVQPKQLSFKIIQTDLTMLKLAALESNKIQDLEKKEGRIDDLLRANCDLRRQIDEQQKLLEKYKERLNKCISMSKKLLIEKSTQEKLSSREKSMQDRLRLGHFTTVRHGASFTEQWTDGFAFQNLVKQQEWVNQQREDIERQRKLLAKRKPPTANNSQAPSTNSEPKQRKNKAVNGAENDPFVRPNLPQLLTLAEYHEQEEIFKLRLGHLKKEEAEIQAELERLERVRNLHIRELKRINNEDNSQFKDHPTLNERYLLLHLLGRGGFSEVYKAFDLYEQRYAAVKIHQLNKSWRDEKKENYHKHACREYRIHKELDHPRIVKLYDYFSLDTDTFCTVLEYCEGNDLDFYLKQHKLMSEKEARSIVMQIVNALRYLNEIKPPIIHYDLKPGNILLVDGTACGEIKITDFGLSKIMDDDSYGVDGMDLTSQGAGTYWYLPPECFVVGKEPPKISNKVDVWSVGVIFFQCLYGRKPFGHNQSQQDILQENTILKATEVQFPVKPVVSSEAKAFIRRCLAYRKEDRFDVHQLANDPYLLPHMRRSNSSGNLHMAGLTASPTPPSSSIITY
UniProt Q9Y243: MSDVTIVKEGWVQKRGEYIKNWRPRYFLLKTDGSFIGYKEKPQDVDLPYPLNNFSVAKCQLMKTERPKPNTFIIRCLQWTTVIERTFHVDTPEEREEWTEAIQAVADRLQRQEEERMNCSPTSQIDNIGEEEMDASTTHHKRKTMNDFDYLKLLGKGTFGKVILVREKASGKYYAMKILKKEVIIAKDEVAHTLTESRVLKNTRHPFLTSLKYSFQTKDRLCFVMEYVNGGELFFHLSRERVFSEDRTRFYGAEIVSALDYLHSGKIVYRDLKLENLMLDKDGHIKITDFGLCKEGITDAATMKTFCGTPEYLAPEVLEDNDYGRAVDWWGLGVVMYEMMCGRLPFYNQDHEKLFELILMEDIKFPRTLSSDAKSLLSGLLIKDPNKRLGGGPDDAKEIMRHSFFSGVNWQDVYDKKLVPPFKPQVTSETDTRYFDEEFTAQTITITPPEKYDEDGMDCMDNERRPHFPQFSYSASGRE

[2] = target: T2, Zinc finger and BTB domain-containing protein 2 (Homo sapiens) (UniProt Q8N680); conditions: SUD4
T2 sequence (whole entry): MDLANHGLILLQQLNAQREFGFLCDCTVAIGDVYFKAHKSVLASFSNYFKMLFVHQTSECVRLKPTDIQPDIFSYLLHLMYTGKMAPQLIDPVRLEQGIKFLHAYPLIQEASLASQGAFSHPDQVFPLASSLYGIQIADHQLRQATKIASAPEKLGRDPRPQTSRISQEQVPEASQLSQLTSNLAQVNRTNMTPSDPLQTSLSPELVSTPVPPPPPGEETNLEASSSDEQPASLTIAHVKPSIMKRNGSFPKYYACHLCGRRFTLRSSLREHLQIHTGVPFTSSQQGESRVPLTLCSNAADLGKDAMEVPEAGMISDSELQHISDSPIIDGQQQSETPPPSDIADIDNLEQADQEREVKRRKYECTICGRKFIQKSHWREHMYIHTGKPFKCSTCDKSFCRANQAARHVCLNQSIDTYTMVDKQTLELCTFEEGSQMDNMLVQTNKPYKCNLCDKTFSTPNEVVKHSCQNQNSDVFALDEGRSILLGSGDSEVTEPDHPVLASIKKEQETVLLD

[3] = target: Serine/threonine-protein kinase tousled-like 1 (Homo sapiens) (UniProt Q9UKI8); conditions: Compound concentration 20.0 uM
[4] = target: T3, Zinc finger protein 131 (Homo sapiens) (UniProt P52739); conditions: SUD4
T3 sequence (whole entry): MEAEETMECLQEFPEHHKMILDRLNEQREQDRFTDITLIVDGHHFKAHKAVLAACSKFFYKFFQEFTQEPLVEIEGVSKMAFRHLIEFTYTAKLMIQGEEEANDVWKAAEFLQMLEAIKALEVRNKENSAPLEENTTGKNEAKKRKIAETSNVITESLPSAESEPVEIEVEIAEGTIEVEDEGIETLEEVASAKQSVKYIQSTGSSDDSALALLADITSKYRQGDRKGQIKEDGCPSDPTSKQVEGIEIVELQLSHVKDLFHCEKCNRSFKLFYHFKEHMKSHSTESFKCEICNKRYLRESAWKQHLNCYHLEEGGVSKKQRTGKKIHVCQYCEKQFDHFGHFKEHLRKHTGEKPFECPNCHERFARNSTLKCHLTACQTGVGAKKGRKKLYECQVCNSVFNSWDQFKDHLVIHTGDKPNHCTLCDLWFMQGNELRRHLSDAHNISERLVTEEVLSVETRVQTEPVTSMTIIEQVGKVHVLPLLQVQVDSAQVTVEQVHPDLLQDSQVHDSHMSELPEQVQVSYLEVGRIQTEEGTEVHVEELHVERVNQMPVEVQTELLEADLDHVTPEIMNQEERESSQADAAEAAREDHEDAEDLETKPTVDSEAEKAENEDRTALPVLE

[5] = target: T4, Zinc finger and BTB domain-containing protein 44 (Homo sapiens) (UniProt Q8NCP5); conditions: SUD4
T4 sequence (whole entry): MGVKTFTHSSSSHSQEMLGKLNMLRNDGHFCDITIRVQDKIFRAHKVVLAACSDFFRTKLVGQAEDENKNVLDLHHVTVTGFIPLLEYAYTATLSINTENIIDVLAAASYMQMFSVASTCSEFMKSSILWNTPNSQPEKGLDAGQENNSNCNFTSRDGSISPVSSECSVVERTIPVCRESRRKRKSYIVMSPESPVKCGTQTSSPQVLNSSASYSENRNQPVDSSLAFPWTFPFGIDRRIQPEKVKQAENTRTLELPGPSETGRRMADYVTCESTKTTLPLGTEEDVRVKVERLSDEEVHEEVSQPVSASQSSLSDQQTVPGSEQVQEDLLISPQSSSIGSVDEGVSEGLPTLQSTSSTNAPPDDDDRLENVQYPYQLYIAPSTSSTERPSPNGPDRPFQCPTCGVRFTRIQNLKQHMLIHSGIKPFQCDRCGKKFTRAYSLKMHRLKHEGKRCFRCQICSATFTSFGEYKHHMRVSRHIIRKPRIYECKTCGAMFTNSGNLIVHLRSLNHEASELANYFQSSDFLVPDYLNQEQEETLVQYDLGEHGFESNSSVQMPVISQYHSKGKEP

[6] = target: RAC-gamma serine/threonine-protein kinase (Homo sapiens) (UniProt Q9Y243); conditions: Compound concentration 20.0 uM

`C[C@@H]1CN(c2ncc(Cl)c(Nc3ccc4c(c3)n(CCC(C)(C)O)c(=O)n4C)n2)C[C@H](C)C1(F)F` gave a Normalized abundances for DMSO [1] of 257, a Normalized abundances for compound [1] of 263 and a Normalized abundances for DMSO [2] of 676. The Normalized abundances for compound [2] was 751, the Tm [3] was 49 °C and the Normalized abundances for DMSO [4] was 1850. For the same molecule, the Normalized abundances for compound [4] was 1790, the Normalized abundances for DMSO [5] was 565 and the Normalized abundances for compound [5] was 480. The Tm [6] was 49 °C.

From ChEMBL document CHEMBL5058646 (2022)
